According to US20100190237A1, “COMPOSITIONS AND METHODS FOR STORAGE OF BACTERIAL SUSPENSIONS” (priority 2007, published 2010):

System: luminescent bacteria (e.g. Photobacterium leiognathi, Vibrio fischeri, Vibrio harveyi)
Experiment: titration of medium components: luminescence during long term storage at refrigeration temperatures
Format: cell-based
Details: based on results of examples 2 through 9
Protocol: In order to identify storage conditions suitable for a long term medium for a suspension of luminescent bacteria (e.g. Photobacterium leiognathi, Vibrio fischeri, Vibrio harveyi) different concentrations of monovalent salts, sugars, sources of divalent cations, protein mixtures, albumins and alcohols were tested.
Each of the medium components (including pH) was tested separately while all other components were kept at a constant concentration as indicated in Table 1. For titration of other components pH was held constant at 7.2. The effect on bacterial luminescence of each component at each tested concentration (or pH value) was determined over a period of several weeks.
In order to perform the titration of the medium components, a bacterial culture was spread on LA plates at about 300 colonies per plate after over night growth. Colonies were collected from plates with ASW and centrifuged (10000 g, 10 minutes, 4° C.). Harvested bacteria were resuspended in the different solutions to form experimental bacterial suspensions.
Experimental bacterial suspensions were stored at −2° C.-+4° C. Each week an aliquot of each experimental bacterial suspension was drawn and diluted in artificial seawater (ASW: 0.5M NaCl, 50 mM MgSO47H2O, 10 mM CaCl22H2O, 10 mM KCl)) supplemented with 50 ppm yeast extract/glucose and incubated at 26° C.-28° C. Light level was recorded after 30 minutes.

## Bovine serum albumin [BSA]
  range I: concentrations that provided a marked improvement over negative control: 0.62-1.0%
